# According to US20230301883A1, “MOISTURIZING ANTIBACTERIAL COMPOSITION” (priority 2020, published 2023):
# Experiments:
# [1] = Solubility of sensory oil in 75/25 EtOH/Water blend; type: physicochemical
# Source text: (§1) A sensory oil can be used in the antibacterial composition to assist in leaving the user with a non-tacky feeling to the skin after application of the composition. The antibacterial composition comprises a sensory oil in an amount of 0.01 to 10% by weight, preferably 0.5 to 5% by weight including all values and ranges subsumed therein. The sensory oil can comprise a soluble sensory oil. Sensory oils desirable for use in the antibacterial composition disclosed herein must meet the following criteria: the sensory oil must be liquid, the sensory oil must be soluble in at least a 75/25 or higher ratio of EtOH/Water which is to be reflective of solubility in the final composition to give a clear final antibacterial composition, and the sensory oil must have no solvency for water.
# (§2) The examples are not meant to limit the materials that can be used but merely to illustrate oil type and level selected based on three criteria. […] Finally, the preferred oil must itself not have solvency for water such that during application and on drying as the ethanol and water evaporate, the water is also allowed to quickly evaporate leaving behind only the oil and any skin benefit actives/moisturizers if present.
# [2] = Water solubility in sensory oil (solvency of the oil for water); type: physicochemical; details: yes/no
# Source text: as §1, §2
Substance,Solubility in 75/25 EtOH/Water [1],Water solubility in sensory oil [2]
Glycereth-5 lactate,>30%,Yes
Glycereth-7 lactate,>30%,Yes
PPG15 Stearyl ether,>30%,No
